Measured values taken from ChEMBL document CHEMBL2062463 (Bioorg Med Chem Lett, 2012).

Tested on: Liver (Mus musculus)
Experiment: Drug metabolism in mouse liver homogenates assessed as formation of SU12662 after 1 hr incubation by HPLC analysis
Conditions: tissue homogenate; call rule not given here

Drug metabolism: Active
SMILES: CCN(CC)CCNC(=O)c1c(C)[nH]c(/C=C2\C(=O)Nc3ccc([125I])cc32)c1C
